Data on one molecule can be found in PMC3824626 (Bioorganic & medicinal chemistry letters, 2013).

The chains behind the UniProt entries cited, without tags or fusion partners. Where a name states a change or a piece, a line headed by the entry shows the natural chain unless it says otherwise.
UniProt P54132: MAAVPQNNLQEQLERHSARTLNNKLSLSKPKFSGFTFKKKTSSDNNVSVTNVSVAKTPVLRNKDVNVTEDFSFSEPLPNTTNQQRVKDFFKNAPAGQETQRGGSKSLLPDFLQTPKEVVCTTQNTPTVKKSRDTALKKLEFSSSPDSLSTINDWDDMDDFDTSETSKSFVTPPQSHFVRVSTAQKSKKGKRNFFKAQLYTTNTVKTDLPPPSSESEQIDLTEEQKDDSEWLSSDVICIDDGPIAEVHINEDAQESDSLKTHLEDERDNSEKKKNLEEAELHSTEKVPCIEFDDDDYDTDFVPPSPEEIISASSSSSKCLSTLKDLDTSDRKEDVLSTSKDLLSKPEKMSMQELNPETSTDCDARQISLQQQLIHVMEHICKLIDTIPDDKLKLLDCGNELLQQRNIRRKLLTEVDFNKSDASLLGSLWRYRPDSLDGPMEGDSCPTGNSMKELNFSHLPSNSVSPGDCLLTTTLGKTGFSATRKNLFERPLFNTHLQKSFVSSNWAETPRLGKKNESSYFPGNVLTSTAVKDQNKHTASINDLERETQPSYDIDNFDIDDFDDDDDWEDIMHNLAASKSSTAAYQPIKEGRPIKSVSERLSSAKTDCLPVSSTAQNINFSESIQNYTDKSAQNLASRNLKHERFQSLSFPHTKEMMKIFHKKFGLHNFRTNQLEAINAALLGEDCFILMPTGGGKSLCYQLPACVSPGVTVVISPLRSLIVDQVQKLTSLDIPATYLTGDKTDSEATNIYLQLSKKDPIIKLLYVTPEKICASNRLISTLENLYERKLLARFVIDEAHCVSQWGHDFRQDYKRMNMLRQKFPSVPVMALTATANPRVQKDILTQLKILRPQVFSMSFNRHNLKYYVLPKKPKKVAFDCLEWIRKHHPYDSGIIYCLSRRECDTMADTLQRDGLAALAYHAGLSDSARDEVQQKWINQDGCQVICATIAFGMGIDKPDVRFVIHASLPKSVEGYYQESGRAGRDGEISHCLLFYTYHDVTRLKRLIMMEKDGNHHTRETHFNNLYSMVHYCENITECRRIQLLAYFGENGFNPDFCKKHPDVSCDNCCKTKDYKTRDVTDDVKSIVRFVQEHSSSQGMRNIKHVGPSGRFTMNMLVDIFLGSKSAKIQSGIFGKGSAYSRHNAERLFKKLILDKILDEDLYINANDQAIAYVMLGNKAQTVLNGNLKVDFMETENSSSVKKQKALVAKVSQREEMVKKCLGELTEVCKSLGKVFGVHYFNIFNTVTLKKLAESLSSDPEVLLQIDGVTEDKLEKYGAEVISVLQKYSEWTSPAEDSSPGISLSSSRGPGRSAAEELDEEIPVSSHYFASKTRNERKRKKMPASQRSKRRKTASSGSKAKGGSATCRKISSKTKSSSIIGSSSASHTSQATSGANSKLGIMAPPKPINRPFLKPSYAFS

The assay concerns the target BLM helicase (Homo sapiens, UniProt P54132). The assay is described as follows: gel-based BLM DNA unwinding assay. In kind it is biochemical.

As for `O=C(Nc1ccc(F)c(C(F)(F)F)c1)Nc1nnc(-c2ccncc2)s1` [ML216], the “IC50 (BLM)” value is reported as “good activity”.
